Chains of the proteins cited; added tags and fusions are not shown. Residues count along the entry.
UniProt P00533, 25-1210: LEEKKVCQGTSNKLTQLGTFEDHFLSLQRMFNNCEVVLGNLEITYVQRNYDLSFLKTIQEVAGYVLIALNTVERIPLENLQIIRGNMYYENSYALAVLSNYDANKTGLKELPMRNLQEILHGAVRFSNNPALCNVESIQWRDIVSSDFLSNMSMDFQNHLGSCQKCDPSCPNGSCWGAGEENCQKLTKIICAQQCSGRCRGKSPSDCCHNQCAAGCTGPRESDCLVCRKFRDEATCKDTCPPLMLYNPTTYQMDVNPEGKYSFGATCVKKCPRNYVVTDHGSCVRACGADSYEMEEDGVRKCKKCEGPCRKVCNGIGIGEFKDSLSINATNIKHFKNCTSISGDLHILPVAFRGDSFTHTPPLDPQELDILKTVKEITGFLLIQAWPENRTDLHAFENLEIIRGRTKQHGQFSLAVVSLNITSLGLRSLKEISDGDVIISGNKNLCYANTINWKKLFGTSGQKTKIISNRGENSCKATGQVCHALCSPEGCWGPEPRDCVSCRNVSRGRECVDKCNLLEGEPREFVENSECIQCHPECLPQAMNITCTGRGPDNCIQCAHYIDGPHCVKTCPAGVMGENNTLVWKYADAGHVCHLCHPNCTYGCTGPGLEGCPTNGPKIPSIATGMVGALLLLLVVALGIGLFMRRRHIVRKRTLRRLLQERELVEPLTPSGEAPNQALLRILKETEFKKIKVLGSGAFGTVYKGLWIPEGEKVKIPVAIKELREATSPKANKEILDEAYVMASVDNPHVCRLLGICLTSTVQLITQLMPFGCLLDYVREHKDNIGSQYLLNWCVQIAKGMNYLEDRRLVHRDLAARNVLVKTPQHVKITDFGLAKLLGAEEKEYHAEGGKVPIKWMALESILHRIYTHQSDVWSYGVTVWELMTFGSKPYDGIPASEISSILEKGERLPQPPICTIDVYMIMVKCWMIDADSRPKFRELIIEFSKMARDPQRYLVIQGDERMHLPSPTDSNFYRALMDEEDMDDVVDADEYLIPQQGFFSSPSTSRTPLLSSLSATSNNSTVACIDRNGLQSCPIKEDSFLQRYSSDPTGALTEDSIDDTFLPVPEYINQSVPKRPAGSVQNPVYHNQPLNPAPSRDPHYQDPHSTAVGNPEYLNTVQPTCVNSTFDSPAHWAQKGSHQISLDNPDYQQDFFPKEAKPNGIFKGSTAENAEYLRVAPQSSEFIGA

In publication PMC10831936 (iScience, 2024):

How the values were obtained:
EGFR [1] = target: T1, EGFR (Homo sapiens, UniProt P00533); test: Split TEV firefly luciferase assay, EGFR; format: cell-based
phospho-EGFR = phospho-EGFR (Homo sapiens, UniProt P00533); test: Western blot of p-EGFR in A549 cells
EGFR [2] = target: T1, EGFR; test: ERBBprofiler barcoded split TEV assay, EGFR

Row | Structure (SMILES) | IC50 (EGFR [1]) | IC50 (phospho-EGFR) | IC50 (EGFR [2])
1 | COc1cc2ncnc(Nc3cccc(Cl)c3)c2cc1OC [AG1478, AG-1478 (Tyrphostin AG-1478)] | 40 nM | 0.61 nM | 65 nM
2 | CCOc1cc2ncc(C#N)c(Nc3ccc(OCc4ccccn4)c(Cl)c3)c2cc1NC(=O)/C=C/[C@H]1CCCN1C [Pyrotinib] | 147 nM | 560 nM | 881 nM
